Test results published in ChEMBL document CHEMBL1156846, “Remote functionalization of SCH 39166: discovery of potent and selective benzazepine dopamine D1 receptor antagonists” (Bioorg Med Chem Lett, 2010).

The chains behind the UniProt entries cited, without tags or fusion partners.
UniProt P14416, whole entry: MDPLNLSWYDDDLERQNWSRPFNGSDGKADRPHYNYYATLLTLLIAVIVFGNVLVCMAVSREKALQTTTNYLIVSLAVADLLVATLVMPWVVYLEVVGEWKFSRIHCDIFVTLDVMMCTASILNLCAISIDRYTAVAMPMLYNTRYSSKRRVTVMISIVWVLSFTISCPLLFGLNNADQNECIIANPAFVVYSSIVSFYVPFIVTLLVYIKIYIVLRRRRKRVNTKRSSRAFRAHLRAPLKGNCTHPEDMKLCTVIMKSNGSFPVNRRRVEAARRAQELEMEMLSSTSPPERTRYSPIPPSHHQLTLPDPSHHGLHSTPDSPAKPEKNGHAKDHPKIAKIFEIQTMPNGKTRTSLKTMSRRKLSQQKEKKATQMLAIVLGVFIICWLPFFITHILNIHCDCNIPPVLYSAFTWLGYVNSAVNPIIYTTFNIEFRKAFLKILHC

Target: D(2) dopamine receptor (Homo sapiens, UniProt P14416)
Assay: Displacement of [3H]methylspiperon from dopamine D2 receptor expressed in mouse LTK cells by scintillation counting
Type: cell-based

CN1CCc2cc(Cl)c(O)cc2[C@H]2c3ccccc3CC[C@@H]21 [ECOPIPAM]
Ki: 980 nM
